Columns and labels:
bone marrow cells = assay: Apoptosis assay of NOD.RAG2−/− bone marrow cells; assay type: cell-based, mouse; conditions: bone marrow cells (FIG. 13)
Protocol: FIG. 13—Representative dot plots of apoptosis assay of NOD.RAG2−/− bone marrow cells after culturing them with different peptides. Annexin V and PI positive cells were analysed after culturing 4×10^5 cells for 24 hours or 48 hours with peptide 72, or DIF-P, or DIF-P3K, or without stimulus (n=4).
HL-60, Jurkat and NALM-6 cells were grown and maintained in complete culture medium in a humidified 5% CO2, atmosphere at 37° C. […] After 1 hour, 24 hours or 48 hours, cells were analysed by flow cytometry and culture supernatants stored at −80° C. until use.
For cell death and apoptosis analysis, 400.000 of primary cells or 100.000 of cell line cells were incubated in 96-well plates in 200 μL of complete culture medium for 24 h at 37° C. and 5% CO2 in the absence or presence of 55 μM of different peptides. After 1 hour, 24 hours or 48 hours, apoptosis was measured by CFBlue Annexin V Apoptosis Detection Kit with PI (ANXVKCFB-100T, Immunostep), following kit protocol. […] Cell suspensions were analysed by flow cytometry using FACS CANTO II instrumentation (BD, Biosciences, San Jose, Calif.) and Flowjo (version 8.7) software.

[1] = system: NOD.RAG-2−/− mouse splenocytes; assay: Cytokine release by NOD.RAG-2−/− mouse splenocytes; assay type: cell-based; conditions: NOD.RAG-2−/− splenocytes, 24 h and 48 h
Protocol: FIG. 1—Cytokine concentration from mouse splenocytes cultured with peptides. Results of the analysis of the supernatants of cells incubated for 24 h and 48 h with peptides 72 and DIF-P (n=4); (A) splenocytes from NOD.RAG-2−/− mice; (B) splenocytes from NOD mice.
FIG. 10—Concentrations of different cytokines produced by NOD.RAG2−/− splenocytes cultured with peptides. 4×10^5 cells were incubated per well with peptide 72, or DIF-P, or DIF-P3K, or DIF-P8R, or without stimulus for 24 hours or 48 hours before collecting the supernatant (*=p<0.05, **=p<0.01).
(§1) HL-60, Jurkat and NALM-6 cells were grown and maintained in complete culture medium in a humidified 5% CO2, atmosphere at 37° C. […] Human splenocytes from buffy coats were collected by density gradient using Histopaque 1077 (Histopaque®-1077, 10771 sigma) as described elsewhere (Johnston, L., Harding, S. A. & La Flamme, A. C. Comparing methods for ex vivo characterization of human monocyte phenotypes and in vitro responses. Immunobiology 2015, 220, 1305-1310). Cells from bone marrow were obtained disrupting femur and tibia as explained elsewhere too (Liu, X. & Quan, N. Immune Cell Isolation from Mouse Femur Bone Marrow. Bio-protocol 5, 2015). Monocytes and neutrophils from bone marrow were purified using the Stemcell kits (19861 and 19762 subsequently) and the kit protocol was followed. Cells were incubated in 96-well tissue culture plates (4×10^5/well for primary cells and 1×10^5 for cells lines) at 37° C. in 5% CO2 in complete culture medium using 55 μM of different Peripherin peptides. For proliferation assays, cells were labelled with CFSE (C34554, life technologies). After 1 hour, 24 hours or 48 hours, cells were analysed by flow cytometry and culture supernatants stored at −80° C. until use.
Culture supernatants from mice proliferation assays were collected and IL-2, IL-4, IL-6, IFN-γ, IL-10, TNF-α and IL-17 cytokine amounts analysed by flow cytometry using CBA kit (560485, BD). For human cell cultures, the Legendplex Kit was used (BioLegend, 740502), which studied cytokines IL-12p70, TNF-α, IL-6, IL-4, IL-10, IL-1β, arginase, IL-1st, IL-12p40, IL-23, IFN-γ and IP-10.

[2] = system: human PBMC (peripheral blood mononuclear cells); assay: Apoptosis/pyroptosis and cell death in human PBMC (annexin V/PI, Caspase-1, Caspase-3); assay type: cell-based; conditions: for induction of apoptosis and/or pyroptosis: 55 μM; for pyroptosis (comparison between peptides): Caspase-1 after 1 hour
Protocol: FIG. 6—Representative dot plots of apoptosis assay of human PBMC cells after culturing them with different peptides. Annexin V and PI positive cells were analysed after culturing 4×10^5 cells for 1 hour, 24 hours or 48 hours with peptide 72, or DIF-P, or DIF-P3K, or DIF-P8R or without stimulus (n=4).
FIG. 7—Representative histograms of activated (cleaved) caspase-1 positive cells from human PBMC cultured with different peptides. 4×10^5 PBMC cells were cultured with peptide 72, or DIF-P, or DIF-P3K, or DIF-P8R, or Nigericin (as a positive control) or without stimulus for an hour and activated caspase-1 was measured with 660-YVAD-FMK (n=4). Positive cell percentage is resumed on the right of the figure (*=p<0.05).
FIG. 8—Representative histograms of activated (cleaved) caspase-3 positive cells from human PBMC cultured with different peptides. 4×10^5 PBMC cells were cultured with peptide 72, or DIF-P, or DIF-P3K, or DIF-P8R, or staurosporine (as a positive control) or without stimulus for an hour and activated caspase-3 was measured with FAM-DEVD-FMK (n=4). Positive cell percentage is resumed on the right of the figure (*=p<0.05, **=p<0.01).
For cell death and apoptosis analysis, 400.000 of primary cells or 100.000 of cell line cells were incubated in 96-well plates in 200 μL of complete culture medium for 24 h at 37° C. and 5% CO2 in the absence or presence of 55 μM of different peptides. After 1 hour, 24 hours or 48 hours, apoptosis was measured by CFBlue Annexin V Apoptosis Detection Kit with PI (ANXVKCFB-100T, Immunostep), following kit protocol. For cleaved caspasa-3 intracellular staining, mononuclear cells were permeabilised following the manufacturer's instructions of the FoxP3 Staining Buffer Set (00-5523-00, eBioscience) and the cleaved caspasa-3-Pacific Blue (8788S, Cell Signalling) was used for staining. Cell suspensions were analysed by flow cytometry using FACS CANTO II instrumentation (BD, Biosciences, San Jose, Calif.) and Flowjo (version 8.7) software.
Fluorescent labeled inhibitors of caspases (FLICA) probe assays were performed in order to check intracellular activation of specific caspases and confirm previously obtained flow cytometry results by cleaved caspasa-3 antibody. FLICA staining was achieved following manufacturer's instructions, as described elsewhere (Doitsh, G. et al. Cell death by pyroptosis drives CD4 T-cell depletion in HIV-1 infection. Nature 2014, 505, 509-514), after incubating cells with 55 μM of different Peripherin peptides for 1 hour or 24 hours.
The cytolytic activity (induction of apoptosis and/or pyroptosis) and production of pro-inflammatory cytokines in cell cultures have been analysed for peptides DIF-P, DIF-P3K and DIF-P8R, using peptide 72 as a negative control, in cultures of human PBMC (peripheral blood mononuclear cells). The induction of apoptosis and/or pyroptosis, and cell death was detected by flow cytometry analysis, determining the expression (presence) of annexin V in the cell membrane, and the staining of the cell nucleus with propidium iodide, respectively (FIG. 6). […] The production of pro-inflammatory cytokines (IL-6, IL-1β, TNF-α, IL-12p40, IL-23, IP-10, IFN-γ) is determined after incubation with the stimulus after 24 or 48 hours (FIG. 9).

[3] = system: NOD.RAG-2−/− mouse bone marrow cells; assay: Cytokine release by NOD.RAG-2−/− mouse bone marrow cells; assay type: cell-based; conditions: NOD.RAG-2−/− bone marrow cells, 24 h and 48 h
Protocol: FIG. 11—Concentrations of different cytokines produced by NOD.RAG2−/− cells from bone marrow cultured with peptides. 4×10^5 cells were incubated per well with peptide 72, or DIF-P, or DIF-P3K, or DIF-P8R, or without stimulus for 24 hours or 48 hours before collecting the supernatant (*=p<0.05).
as §1, with “Monocytes and neutrophils from bone marrow were purified using the Stemcell kits (19861 and 19762 subsequently) and the kit protocol was followed. Cells were incubated in 96-well tissue culture plates (4×10^5/well for primary cells and 1×10^5 for cells lines) at 37° C. in 5% CO2 in complete culture medium using 55 μM of different Peripherin peptides. For proliferation assays, cells were labelled with CFSE (C34554, life technologies).” left out
Culture supernatants from mice proliferation assays were collected and IL-2, IL-4, IL-6, IFN-γ, IL-10, TNF-α and IL-17 cytokine amounts analysed by flow cytometry using CBA kit (560485, BD). […]

Row | SMILES | induction of apoptosis and/or pyroptosis (bone marrow cells) | release of IL-6 and IL-4 to the culture medium [1] | induction of apoptosis and/or pyroptosis [2] | pyroptosis (comparison between peptides) [2] | release of inflammatory cytokines IL-6 and IL-4 [3] | release of TNF-α [1]
1 | CC[C@H](C)[C@H](NC(=O)[C@H](CCC(=O)O)NC(=O)[C@@H](NC(=O)[C@H](CC(=O)O)NC(=O)[C@H](CC(C)C)NC(=O)[C@H](C)NC(=O)[C@H](CCSC)NC(=O)[C@H](CCCCN)NC(=O)[C@@H](NC(=O)[C@H](CC(N)=O)NC(=O)[C@H](CC(C)C)NC(=O)[C@@H](N)CC(C)C)C(C)C)[C@@H](C)CC)C(=O)N[C@@H](CCCNC(=N)N)C(=O)N[C@@H](CCCNC(=N)N)C(=O)N[C@@H](CCCNC(=N)N)C(=O)N[C@@H](CCCNC(=N)N)C(=O)N[C@@H](CCCNC(=N)N)C(=O)N[C@@H](CCCNC(=N)N)C(=O)N[C@@H](CCCNC(=N)N)C(=O)N[C@@H](CCCNC(=N)N)C(=O)O [DIF-P8R] | more efficient than peptide DIF-P | particularly significant | induce apoptosis and/or pyroptosis | almost no pyroptosis | similarly efficient | –
2 | CC[C@H](C)[C@H](NC(=O)[C@H](CCC(=O)O)NC(=O)[C@@H](NC(=O)[C@H](CC(=O)O)NC(=O)[C@H](CC(C)C)NC(=O)[C@H](C)NC(=O)[C@H](CCSC)NC(=O)[C@H](CCCCN)NC(=O)[C@@H](NC(=O)[C@H](CC(N)=O)NC(=O)[C@H](CC(C)C)NC(=O)[C@@H](N)CC(C)C)C(C)C)[C@@H](C)CC)C(=O)N[C@@H](CCCCN)C(=O)N[C@@H](CCCCN)C(=O)N[C@@H](CCCCN)C(=O)O [DIF-P3K, LLNVKMALDIEIKKK] | more efficient than peptide DIF-P | – | induce apoptosis and/or pyroptosis | significant percentage of pyroptosis compared to peptide DIF-P | similarly efficient | more efficient at inducing release of TNF-α

From US20220251158A1, “INTERMEDIATE FILAMENT-DERIVED PEPTIDES AND THEIR USES” (UNIVERSITAT DE LLEIDA, priority 2019, published 2022)
